Values of other authors as cited in paper PMC5452965 (PeerJ, 2017).

By UniProt entry, the sequences of proteins in these tests, tags left out.
UniProt P02550, whole entry: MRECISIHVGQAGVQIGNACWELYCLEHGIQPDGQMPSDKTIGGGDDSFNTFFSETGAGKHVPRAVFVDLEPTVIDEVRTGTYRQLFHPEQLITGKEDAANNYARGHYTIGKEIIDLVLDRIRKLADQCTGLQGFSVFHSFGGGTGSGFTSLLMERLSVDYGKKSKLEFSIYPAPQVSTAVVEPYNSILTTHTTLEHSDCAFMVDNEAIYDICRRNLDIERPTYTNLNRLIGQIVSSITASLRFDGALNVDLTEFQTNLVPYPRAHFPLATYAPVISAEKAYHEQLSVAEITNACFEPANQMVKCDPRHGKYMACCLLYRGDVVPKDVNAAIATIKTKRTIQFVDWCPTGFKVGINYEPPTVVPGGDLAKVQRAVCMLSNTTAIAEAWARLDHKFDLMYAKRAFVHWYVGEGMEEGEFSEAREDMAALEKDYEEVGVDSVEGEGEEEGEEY
UniProt P02554, whole entry: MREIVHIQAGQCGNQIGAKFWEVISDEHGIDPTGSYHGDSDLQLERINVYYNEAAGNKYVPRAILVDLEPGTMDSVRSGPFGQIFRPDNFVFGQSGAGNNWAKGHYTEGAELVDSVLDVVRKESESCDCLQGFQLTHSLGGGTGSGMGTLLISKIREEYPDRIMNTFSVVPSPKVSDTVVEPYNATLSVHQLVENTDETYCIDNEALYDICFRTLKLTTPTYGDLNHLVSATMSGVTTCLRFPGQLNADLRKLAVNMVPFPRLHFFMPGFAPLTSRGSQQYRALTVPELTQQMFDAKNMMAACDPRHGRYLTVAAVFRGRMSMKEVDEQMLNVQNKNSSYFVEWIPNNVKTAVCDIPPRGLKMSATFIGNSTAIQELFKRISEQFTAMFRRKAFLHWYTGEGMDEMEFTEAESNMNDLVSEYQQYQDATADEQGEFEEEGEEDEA

What was measured:
[1] = test system: microtubule network in α-tubulin-GFP U2OS cells; conditions: both concentrations (IC80, IC50), ref Wang et al. (2016a); cited from earlier work
[2] = target: T1, Porcine brain tubulin plus MAPs (Sus scrofa, UniProt P02550+P02554); conditions: ref Wang et al. (2016a), cited from earlier work
T1 construct: Porcine brain tubulin plus MAPs was prepared by two cycles of polymerization and depolymerization; from tissue; host or cells: porcine brain

| Compound | effect on cellular microtubule network [1] | inhibition of tubulin polymerization at 1 mM ([2]; 1 mM, Figure 4D) | effect on tubulin assembly in vitro [2] |
| --- | --- | --- | --- |
| COc1cc2c(c(OC)c1OC)-c1ccc(OC)c(=O)cc1[C@@H](NC(C)=O)CC2 [Colchicine, colchicine] | decreased the microtubule mass |  |  |
| C/C1=C/C(=O)O[C@@H]2C[C@@H](CC[C@H](C)/C=C\CC1)O[C@@](O)([C@@H]1CSC(=O)N1)C2 [Latrunculin B, latrunculin B] |  | around 30% | did not exhibit significant inhibition on tubulin assembly |
